Assay results reported in patent US7193044.

Experiments:
[1] = system: Mutant BAD S155A, full-length, in vitro translated, 35S-methionine labelled

Substance: PKA (cAMP-dependent protein kinase), catalytic subunit from bovine heart
- gel-mobility shift after incubation with PKA and ATP [1]: but not mutant S155A BAD
- PKA catalyzed 32P-ATP incorporation, reduction compared to the wild-type BAD substrate (GST-BAD S155A): A single S155A mutation reduced PKA catalyzed 32P-ATP incorporation by more than 90%, compared to the wild-type mammalian BAD substrate
